The values that follow are results of earlier work, collected in patent US20100137246A1, “Anti-inflammatory compositions and methods” (Searete LLC, a limited liability corporation of the State …, priority 2008, published 2010).

By UniProt entry, the sequences of proteins in these tests, tags left out. Residues count along the entry.
UniProt P09619, 33-1106, species assumed: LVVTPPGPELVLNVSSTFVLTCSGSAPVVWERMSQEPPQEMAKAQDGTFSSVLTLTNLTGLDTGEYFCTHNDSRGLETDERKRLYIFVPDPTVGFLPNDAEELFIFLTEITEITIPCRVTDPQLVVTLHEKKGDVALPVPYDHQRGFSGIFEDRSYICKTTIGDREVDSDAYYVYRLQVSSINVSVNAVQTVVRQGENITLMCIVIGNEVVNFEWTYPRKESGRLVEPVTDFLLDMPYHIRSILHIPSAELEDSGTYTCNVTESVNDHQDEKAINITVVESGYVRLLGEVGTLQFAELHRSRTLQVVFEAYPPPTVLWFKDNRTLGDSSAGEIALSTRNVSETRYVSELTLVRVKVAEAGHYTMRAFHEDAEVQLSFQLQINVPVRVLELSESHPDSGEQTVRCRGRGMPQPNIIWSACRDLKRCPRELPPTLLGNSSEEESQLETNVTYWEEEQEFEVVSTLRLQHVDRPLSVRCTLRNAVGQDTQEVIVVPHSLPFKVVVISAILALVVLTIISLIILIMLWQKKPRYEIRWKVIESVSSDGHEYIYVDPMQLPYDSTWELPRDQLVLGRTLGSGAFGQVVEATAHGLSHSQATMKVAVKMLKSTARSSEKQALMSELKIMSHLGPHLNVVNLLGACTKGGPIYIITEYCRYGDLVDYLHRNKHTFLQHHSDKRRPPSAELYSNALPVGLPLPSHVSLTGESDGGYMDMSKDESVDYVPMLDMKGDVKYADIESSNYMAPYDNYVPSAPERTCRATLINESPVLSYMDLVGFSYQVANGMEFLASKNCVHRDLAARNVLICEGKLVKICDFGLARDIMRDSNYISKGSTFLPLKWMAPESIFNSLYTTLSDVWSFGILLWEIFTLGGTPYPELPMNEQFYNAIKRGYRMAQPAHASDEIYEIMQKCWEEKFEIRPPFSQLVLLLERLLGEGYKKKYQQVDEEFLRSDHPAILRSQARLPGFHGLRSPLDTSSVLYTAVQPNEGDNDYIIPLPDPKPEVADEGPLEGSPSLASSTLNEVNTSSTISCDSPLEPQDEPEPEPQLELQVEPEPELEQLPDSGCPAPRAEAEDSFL
UniProt P10721, 26-976: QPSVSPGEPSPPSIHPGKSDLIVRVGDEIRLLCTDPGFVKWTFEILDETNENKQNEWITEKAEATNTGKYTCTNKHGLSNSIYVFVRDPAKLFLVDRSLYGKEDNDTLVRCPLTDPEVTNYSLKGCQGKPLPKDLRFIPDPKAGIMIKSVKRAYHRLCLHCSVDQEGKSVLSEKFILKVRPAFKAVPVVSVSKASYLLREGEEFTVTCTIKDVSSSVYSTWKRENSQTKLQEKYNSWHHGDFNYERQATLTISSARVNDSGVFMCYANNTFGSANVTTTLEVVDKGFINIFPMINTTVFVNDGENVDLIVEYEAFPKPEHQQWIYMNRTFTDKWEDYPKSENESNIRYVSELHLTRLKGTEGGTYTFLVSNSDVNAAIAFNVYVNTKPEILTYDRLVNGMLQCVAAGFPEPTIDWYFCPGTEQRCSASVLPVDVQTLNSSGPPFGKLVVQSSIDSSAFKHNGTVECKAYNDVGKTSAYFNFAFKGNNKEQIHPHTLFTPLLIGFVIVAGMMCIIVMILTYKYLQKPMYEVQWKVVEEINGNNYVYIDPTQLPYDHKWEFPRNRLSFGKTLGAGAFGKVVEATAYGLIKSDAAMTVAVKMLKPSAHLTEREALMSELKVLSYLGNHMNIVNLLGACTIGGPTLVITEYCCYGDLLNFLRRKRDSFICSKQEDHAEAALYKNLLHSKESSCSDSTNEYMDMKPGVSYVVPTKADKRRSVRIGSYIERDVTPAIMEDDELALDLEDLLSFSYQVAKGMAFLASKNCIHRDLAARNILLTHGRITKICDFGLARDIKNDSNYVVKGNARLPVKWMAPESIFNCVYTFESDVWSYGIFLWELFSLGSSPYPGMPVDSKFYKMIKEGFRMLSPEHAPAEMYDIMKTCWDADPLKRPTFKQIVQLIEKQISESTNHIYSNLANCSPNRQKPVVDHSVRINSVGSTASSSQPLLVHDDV

SMILES strings stand for the structures.

One series concerns the target PDGFRβ (Homo sapiens, UniProt P09619). The following applies: at nanomolar concentrations.
For the next series, the target named is c-Kit (Homo sapiens, UniProt P10721). The following applies: at nanomolar concentrations.

Regarding `Cc1nc(Nc2ncc(C(=O)Nc3c(C)cccc3Cl)s2)cc(N2CCN(CCO)CC2)n1.O` [dasatinib, N-(2-chloro-6-methylphenyl)-2-[[6-[4-(2-hydroxyethyl)-1-piperazinyl]-2-methyl-4-pyrimidinyl]amino]-5-thiazolecarboxamide, monohydrate], the “inhibition of PDGFRβ” value at PDGFRβ is “inhibits”. Also, the “inhibition of c-Kit” value at c-Kit was “inhibits”.
